Reported boiling point values for industrial, environmental and drug-like chemicals

Source: data files of OPERA 2.9 (Mansouri et al.), github.com/kmansouri/OPERA.

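These are experimental values that the OPERA curators gathered from public databases to train and test their QSAR models. One number stands for a compound and property, with no spread given. Conditions of the individual experiments are not part of the data. The measured form (salt, isomer or mixture) is not always the one drawn. Some entries may be limits or estimates that an upstream database listed as plain numbers.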

The boiling point refers to atmospheric pressure (760 mmHg), by the definition of the set. "–" marks a cell with nothing listed here. "via" names the databases from which the curators took the value.

compound,name,BP (°C),via
CCO[Si](=O)O,"Silicic acid, ethyl ester",171.4,eChemPortal
CC(OCCCl)OCCCl,"Acetaldehyde, bis(2-chloroethyl) acetal (6CI,7CI,8CI)",195,OCHEM
O=S(=O)(O)c1ccccc1,Benzenesulfonic acid,189.1,"PubChem, eChemPortal"
O=C(O)/C=C\C(=O)O,Maleic acid,138,eChemPortal
Cc1ccc2c(=O)[nH]c(=O)oc2c1,"7-Methyl-2H-1,3-benzoxazine-2,4(3H)-dione",357.5,eChemPortal
CCCCCC(=O)c1ccc(O)cc1O,"1-(2,4-Dihydroxyphenyl)hexan-1-one",343,OCHEM
Cc1ccc(C2OC[C@@H]3OC(c4ccc(C)c(C)c4)O[C@H]([C@H](O)CO)[C@@H]3O2)cc1C (stereo partly drawn),"1,3:2,4-Bis(3,4-dimethylbenzylidene)-D-sorbitol",377.4,eChemPortal
CC(C)(C)OCl,"Hypochlorous acid, 1,1-dimethylethyl ester",77.5,OCHEM
COCc1c(F)c(F)c(COC(=O)C2C(C)(C)C2(C)C)c(F)c1F,Tetramethylfluthrin,314,OCHEM
COc1ccc(C(CCCc2ccccc2)N(C)C)cc1OC (configuration not stated),"1-(3,4-Dimethoxyphenyl)-N,N-dimethyl-4-phenylbutan-1-amine",167,OCHEM
C=C1CCOC(c2ccc(O)c(OC)c2)C1 (configuration not stated),"Phenol, 2-methoxy-4-(tetrahydro-4-methylene-2H-pyran-2-yl)-",266,OCHEM
COC(=O)NCCC[Si](OC)(OC)OC,Methyl [3-(trimethoxysilyl)propyl]carbamate,258,eChemPortal
CC(=O)Nc1ccc(F)cc1-c1ccc(Cl)c(Cl)c1,"N-(3',4'-Dichloro-5-fluorobiphenyl-2-yl)acetamide",374.7,eChemPortal
CC1(C)C2CC3C(C2)C31C(=O)O,"7,7-Dimethyltricyclo[2.2.1.02,6]heptane-1-carboxylic acid",263,OCHEM
CCCCN(C=O)CCCC,"N,N-Dibutylformamide",244.3,eChemPortal
CNCCOCCN(C)C,"N,N-Dimethyl-2-[2-(methylamino)ethoxy]ethan-1-amine",189.2,eChemPortal
CO[Si](C)(CCl)OC,(Chloromethyl)dimethoxymethylsilane,140.3,eChemPortal
FC1(F)C(F)(F)C(F)(F)[C@]2(F)C(F)(F)C(F)(F)C(F)(F)[C@]2(F)C1(F)F,cis-Perfluorohydrindan,118,OCHEM
C=C(C)C(=O)O[Si](C(C)C)(C(C)C)C(C)C,Tri(propan-2-yl)silyl 2-methylprop-2-enoate,238.5,eChemPortal
C1CC2C3CC(C2C1)C1(CCCO1)C3 (configuration not stated),"Decahydrospiro[furan-2(3H),5'-[4,7]methano[5H]indene]",262.8,eChemPortal
C=C(C)c1cccc(C(C)(C)N=C=O)c1,1-(2-Isocyanatopropan-2-yl)-3-(prop-1-en-2-yl)benzene,270,OCHEM
CCCOC(C)OCCC,"Propane, 1,1'-[ethylidenebis(oxy)]bis-",160,eChemPortal
CC(C1CC1)C(O)c1ccc(Cl)cc1 (configuration not stated),1-(4-Chlorophenyl)-2-cyclopropyl-1-propanol,298,eChemPortal
C1C2CC2C2CC12 (configuration not stated),"Tricyclo(4.1.0.02,4)-heptane",105,OCHEM
C=CC(=O)OCC1CC2C=CC1C2 (configuration not stated),"2-Propenoic acid, bicyclo[2.2.1]hept-5-en-2-ylmethyl ester",104,PubChem
CCOC(O)=NS(=O)(=O)c1ccc(C)cc1,Ethyl hydrogen (4-methylbenzene-1-sulfonyl)carbonimidate,272,eChemPortal
CC1CC(CC2CC(C)C(N)C(C)C2)CC(C)C1N (configuration not stated),"4,4'-Methylenebis(2,6-dimethylcyclohexan-1-amine)",353.7,eChemPortal
CC(=CCCC=O)CCCC(C)C,–,235.8,eChemPortal
CC(CO)CCCC1CCCCC1 (configuration not stated),"Cyclohexanepentanol, .beta.-methyl-",267.5,eChemPortal
CCCCOC(=O)[C@H](O)[C@@H](O)C(=O)OCCCC,"(2R,3R)-Dibutyl tartrate",320,OCHEM
CCCCCC1CCC(C2CCC(c3ccc(OCC)c(F)c3F)CC2)CC1 (configuration not stated),–,403,eChemPortal
C=CC=CCl,"1-Chloro-1,3-butadiene",68,OCHEM
CC(C)=CCC/C(C)=C/CC/C(C)=C/CC/C=C(\C)CC/C=C(\C)CCC=C(C)C,(E)-Squalene,335,eChemPortal
CCCCc1ccc(-c2ccc(OCC)c(F)c2F)cc1,–,362.3,eChemPortal
O=S(=O)(F)C(F)(F)C(F)(F)OC(F)=C(F)F,Perfluoro(3-oxapent-4-ene)sulfonyl fluoride,75.6,eChemPortal
NCC(F)(F)C(F)(F)C(F)(F)C(F)(F)C(F)(F)F,"1H,1H-Perfluorohexylamine",107,ChemicalBook
CC(C)(C)C(O)=NC1CCCCC1I (configuration not stated),"N-(2-Iodocyclohexyl)-2,2-dimethylpropanimidic acid",216,eChemPortal
CCCN(CC)CCC,Ethyl di-n-propyl amine,138,OCHEM
Fc1ccc(C2=CCC(C3CCC4(CC3)OCCO4)CC2)cc1F (configuration not stated),–,399.5,eChemPortal
CCCCCCCC(=O)O[C@H]1CO[C@H]2[C@@H]1OC[C@H]2OC(=O)CCCCCCC,Isosorbide dicaprylate,260,eChemPortal
CCCCCC(CN)CCC (configuration not stated),2-Propylheptan-1-amine,208.2,eChemPortal
C=C(C)C(=O)OCC1CCCO1 (configuration not stated),Tetrahydrofurfuryl methacrylate,222,eChemPortal
C=CC(=O)OCCCCCC,Hexyl acrylate,188,PubChem
CC(C)C(C)(C)[C@@H]1CCC(=O)[C@H](C)C1 (relative stereo),"cis-2-Methyl-4-(1,1,2-trimethylpropyl)cyclohexanone",267.5,eChemPortal
CCCCCCCCCc1cc(C)cc(Cc2cc(C)cc(CCCCCCCCC)c2O)c1O,"Phenol, 2,2'-methylenebis[4-methyl-6-nonyl-",584,OFMPub
CCOC(=O)CSc1nc(C(C)(C)C)nn1C(=O)N(C)C,Triazamate,280,OCHEM
C=COCC1CCC(COC=C)CC1 (configuration not stated),"1,4-Bis[(ethenyloxy)methyl]cyclohexane",253,eChemPortal
CC(C)=CCC/C(C)=C/CC/C(C)=C/CCO,Homofarnesol,324,eChemPortal
O=C1COCCO1,Dioxanone,219.9,eChemPortal
CCCCNCCC[Si](C)(OC)OC,N-[3-(Dimethoxymethylsilyl)propyl]-1-butanamine,238,eChemPortal